Results published in paper PMC4882222 (Journal of medicinal chemistry, 2016).
Like-named read-outs stand apart in the source and are kept apart here.

How the values were obtained:
[1] = biological target: HIV RT-associated RNase H (Human immunodeficiency virus type 1 group M subtype B, UniProt P04585); format: biochemical, HIV-1
HIV RT polymerase = HIV RT polymerase (Human immunodeficiency virus type 1 group M subtype B, UniProt P04585); test: RT polymerase assay; format: biochemical, HIV-1
HIV integrase = HIV integrase (Human immunodeficiency virus type 1 group M subtype B, UniProt P04585); test: HIV IN strand transfer assay; format: biochemical
[2] = RNH IC50 HTS-2, HTS-2 substrate, measures DNA 3' end directed cleavage
[3] = RNH IC50 HTS-3, HTS-3 substrate, measures RNA 5' end directed cleavage

Row | Compound | IC50 [1, 2] | IC50 [1, 3] | IC50 (HIV RT polymerase) | IC50 (HIV RT polymerase; read-out: RT Pol IC50, Table 4) | IC50 (HIV integrase)
1 | O=C(O)c1cn(Cc2ccc(Cl)cc2)cc(O)c1=O [10h, 1-(4-Chlorobenzyl)-5-hydroxy-4-oxo-1,4-dihydropyridine-3-carboxylic acid] | > 25 µM | > 25 µM | > 25 µM | > 25 µM | 
2 | O=C(O)c1cn(Cc2ccc(-c3cccnc3)cc2)cc(O)c1=O [10z, 5-Hydroxy-4-oxo-1-(4-(pyridin-3-yl)benzyl)-1,4-dihydropyridine-3-carboxylic acid] |  |  | > 25 µM | > 25 µM | 
3 | COc1ccc(Cn2cc(O)c(=O)c(C(=O)O)c2)cc1 [10q, 5-Hydroxy-1-(4-methoxybenzyl)-4-oxo-1,4-dihydropyridine-3-carboxylic acid] |  |  | > 25 µM | > 25 µM | 
4 | O=C(O)c1cn(Cc2cccc(C(F)(F)F)c2)cc(O)c1=O [10m, 5-Hydroxy-4-oxo-1-(3-(trifluoromethyl)benzyl)-1,4-dihydropyridine-3-carboxylic acid] | > 25 µM | > 25 µM | > 25 µM | > 25 µM | > 100 µM
